Earlier results, collected in US20170262578A1, “SYSTEM, METHOD AND SOFTWARE FOR ANALYSIS OF INTRACELLULAR SIGNALING PATHWAY ACTIVATION USING TRANSCRIPTOMIC DATA” (PATHWAY PHARMACEUTICALS LTD, priority 2015, published 2017).

Test system: Bevacizumab-Refractory Metastatic Renal Cell Carcinoma
Details: 30 from 61 participants

## CCN(CC)CCNC(=O)c1c(C)[nH]c(/C=C2\C(=O)Nc3ccc(F)cc32)c1C [Sunitinib]
  Serious adverse events: 49.18%
